Reference: paper PMC5735191, “Computational and biological profile of boronic acids for the detection of bacterial serine- and metallo-β-lactamases” (Scientific Reports, 2017)

Tests used:
[1] = system: E. aerogenes clinical isolate, overproduction chromosomal AmpC; assay: Susceptibility testing (MIC), synergy with ceftazidime; format: cell-based; settings: antibiotic:inhibitor 1:1 (w/w)
Protocol: (§1) The minimum inhibitory concentrations (MICs), for CAZ and CTX alone and in combination with boronic acids against resistant strains were determined (Table 2a,b).
(§2) Susceptibility testing was performed in Mueller Hinton broth and interpreted following the guidelines of the National Committee for Clinical Laboratory Standards[70]. To test the inhibitory activity, the compounds were dissolved in DMSO, 50% in water, and further dilutions were performed using growth medium. In all cases tests were performed at a final DMSO concentration below 5%, avoiding unwanted DMSO inhibition effect on strains growth (blank test control with DMSO were performed). The MICs of cefotaxime and ceftazidime alone and in association were determined against several relevant Gram-negative clinical isolates, selected from the pathogen collection of the Spanish Network for Research in Infectious Pathology (REIPI; Spain). The selection was based on strains capability of producing β-lactamases of interest for the present study. The antibiotic:inhibitor ratio was 1:1 (w/w).

[2] = system: VIM-2 P. aeruginosa clinical isolate; assay: Susceptibility testing (MIC), synergy with cefotaxime; format: cell-based; settings: antibiotic:inhibitor 1:1 (w/w)
Protocol: as §1, §2

Row | Compound | MIC of ceftazidime (CAZ) in combination with compound [1] [µg/mL] | MIC of cefotaxime (CTX) in combination with compound [2] [µg/mL]
1 | NCc1ccc2sc(B(O)O)cc2c1 [Compound 3] | 128 | 
2 | CC(C)(C)OC(=O)c1cccc2cc(B3OC(C)(C)C(C)(C)O3)sc12 [Compound 4] | 128 | 
3 | CC(C)(C)OC(=O)Nc1cccc2cc(B(O)O)sc12 [Compound 6] | 128 | 128
